This note sets out measurements from PubChem BioAssay AID782 (Emory University Molecular Libraries Screening Center, 2007).

Sequences of proteins named here, by UniProt entry; tags and fusion partners are left off.
UniProt P63073, whole entry, looked up: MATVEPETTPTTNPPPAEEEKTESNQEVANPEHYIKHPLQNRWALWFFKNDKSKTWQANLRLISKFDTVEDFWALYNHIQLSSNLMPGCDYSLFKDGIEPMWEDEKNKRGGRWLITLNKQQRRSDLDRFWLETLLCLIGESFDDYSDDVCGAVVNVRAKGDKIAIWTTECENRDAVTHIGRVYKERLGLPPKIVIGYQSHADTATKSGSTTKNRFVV
UniProt Q04637, whole entry, looked up: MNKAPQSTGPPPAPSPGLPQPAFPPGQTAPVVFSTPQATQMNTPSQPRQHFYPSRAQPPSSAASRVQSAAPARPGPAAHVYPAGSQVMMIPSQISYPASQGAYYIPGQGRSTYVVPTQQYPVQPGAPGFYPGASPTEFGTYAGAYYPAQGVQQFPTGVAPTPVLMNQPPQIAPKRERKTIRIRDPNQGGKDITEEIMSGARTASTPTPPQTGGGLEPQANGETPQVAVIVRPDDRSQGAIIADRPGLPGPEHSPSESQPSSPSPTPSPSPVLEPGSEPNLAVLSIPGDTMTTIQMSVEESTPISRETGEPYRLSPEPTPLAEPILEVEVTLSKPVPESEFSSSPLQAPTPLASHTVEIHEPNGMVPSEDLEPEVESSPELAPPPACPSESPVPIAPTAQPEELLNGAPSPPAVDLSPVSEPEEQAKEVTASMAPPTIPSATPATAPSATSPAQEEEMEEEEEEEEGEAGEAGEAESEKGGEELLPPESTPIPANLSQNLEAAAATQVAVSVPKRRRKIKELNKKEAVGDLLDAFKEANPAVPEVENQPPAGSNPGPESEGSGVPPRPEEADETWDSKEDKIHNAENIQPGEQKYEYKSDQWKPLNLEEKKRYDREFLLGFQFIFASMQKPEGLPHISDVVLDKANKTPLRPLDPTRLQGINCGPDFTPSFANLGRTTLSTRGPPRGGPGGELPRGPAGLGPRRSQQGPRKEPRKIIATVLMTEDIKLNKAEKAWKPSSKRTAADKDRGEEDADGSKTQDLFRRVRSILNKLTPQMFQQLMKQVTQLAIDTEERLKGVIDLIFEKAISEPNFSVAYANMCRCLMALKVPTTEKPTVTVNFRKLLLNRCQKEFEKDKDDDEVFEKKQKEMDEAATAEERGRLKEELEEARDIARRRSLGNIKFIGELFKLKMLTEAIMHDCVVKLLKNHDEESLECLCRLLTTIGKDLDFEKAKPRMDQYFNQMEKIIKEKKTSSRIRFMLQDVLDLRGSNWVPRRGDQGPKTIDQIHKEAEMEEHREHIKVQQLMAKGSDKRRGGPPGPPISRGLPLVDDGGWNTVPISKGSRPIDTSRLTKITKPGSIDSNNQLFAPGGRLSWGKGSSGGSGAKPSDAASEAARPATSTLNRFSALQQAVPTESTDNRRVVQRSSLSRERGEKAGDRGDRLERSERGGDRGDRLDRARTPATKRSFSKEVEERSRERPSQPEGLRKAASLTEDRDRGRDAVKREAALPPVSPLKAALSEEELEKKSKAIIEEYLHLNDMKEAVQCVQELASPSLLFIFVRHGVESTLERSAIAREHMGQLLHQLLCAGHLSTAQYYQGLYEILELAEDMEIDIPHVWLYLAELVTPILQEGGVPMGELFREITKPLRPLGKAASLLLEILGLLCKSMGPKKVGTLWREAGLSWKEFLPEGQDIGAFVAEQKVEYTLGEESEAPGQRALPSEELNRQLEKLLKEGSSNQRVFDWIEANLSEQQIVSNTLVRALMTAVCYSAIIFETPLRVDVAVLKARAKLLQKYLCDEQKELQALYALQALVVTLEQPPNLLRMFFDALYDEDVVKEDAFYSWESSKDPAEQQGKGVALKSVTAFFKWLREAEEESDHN

The entries are a selection whose mix differs from that of the whole data set. The source made the active and inactive calls.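 Rule for the calls: active = inhibition above about 30% (limit read from the data); inactive = the rest.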

The experiment deals with Eukaryotic translation initiation factor 4E (Mus musculus) + Eukaryotic translation initiation factor 4 gamma 1 (Homo sapiens) (UniProt P63073+Q04637). The experiment is described as follows: eIF4E–eIF4G protein interaction inhibitors, primary screen, biochemical, uHTS, TR-FRET, eIF4GI fragment (AID 782).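 Note: 0% = full FRET control wells and 100% = background wells lacking eIF4GI fragment.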 As to conditions: TR-FRET eIF4E-eIF4GI(517-606) binding, 2 h; at 21.7 µM; active compounds read high. (In general: TR-FRET usually uses a lanthanide donor and a delayed reading to cut background.)
As usually defined, the inhibition is the relative decrease from the control value, in per cent. Turning to `Nc1cccc2ccc([As](=O)(O)O)cc12`, the inhibition is inactive: -5.47%. The figure for `CCN(N=Nc1nonc1N)c1nonc1N` is inactive: -1.61%; for `CCOC(=O)NC(Sc1ccccc1)C(Cl)(Cl)Cl` (stereo not drawn) it is inactive: 5.89%; for `Cc1ccc(NP(=O)(Oc2cccc(C)c2)Oc2cccc(C)c2)nc1` it is active: 96.9%.

`c1ccc(-c2nn[nH]n2)c(-c2nn[nH]n2)c1`: the inhibition was inactive: 3.86%. Then `CCNC(=S)/N=C(\N)N[N+](=O)[O-]`, with inactive: -3.79%; and `O=C(NC1CCS(=O)(=O)C1)NP(=S)(Oc1ccccc1)Oc1ccccc1` (stereo not drawn), with inactive: 3.58%. The figure for `CCC(=O)N1C2C3N(C(=O)CC)C1C1N(C(=O)CC)C(C(N1C(=O)CC)N3C(=O)CC)N2C(=O)CC` is inactive: 1.58%; for `Cc1ccc(OP(=O)(Nc2ccccn2)Oc2ccc(C)cc2)cc1` it is inactive: 3.33%; for `CC(=O)NC(SC(=S)N(CC(C)C)CC(C)C)C(Cl)(Cl)Cl` (stereo not drawn) it is inactive: 0.81%.

With `COC(=O)c1cc2c(s1)N=C(c1ccccc1)N(C)P2(=O)N1CCOCC1` (stereo not drawn), the inhibition is inactive: -5.88%. Then `O=c1c2cc([N+](=O)[O-])ccc2[nH]c2c([N+](=O)[O-])cc([N+](=O)[O-])cc12`, with inactive: 7.28%; and `CN(C)C(=O)Oc1noc2ccccc12`, with inactive: -9.04%. Turning to `Cc1ccccc1OP(=O)(Nc1ccccn1)Oc1ccccc1C`, the inhibition was inactive: -2.45%. Consider `CCOc1ccc(C2=NCC(CBr)S2)cc1` (stereo not drawn), for which the inhibition is inactive: 1.37%. Then `O=P1(Nc2nc3ccc(Cl)cc3s2)COc2ccccc2O1` (stereo not drawn), with inactive: 5.97%; and `CC(C)(C)C(=O)NC(Sc1ccccc1)C(Cl)(Cl)Cl` (stereo not drawn), with inactive: 4.99%. The figure for `C[C@H]1OP(=O)(Oc2ccccc2)C[C@@H]2O[C@@H]21` (stereo partly drawn) is inactive: -1.19%; for `C[C@@H]1C=CCP(=O)(Oc2ccccc2)O1` (stereo partly drawn) it is inactive: -7.33%. Then `CC(=O)Nc1ccc(Oc2c([N+](=O)[O-])cc([N+](=O)[O-])cc2[N+](=O)[O-])cc1`, with inactive: 2.4%; and `CC(=O)Nc1ccc([As](=O)(O)O)c(O)c1`, with inactive: -6.07%; and `CC(C)C(=O)NC(Sc1ccccc1)C(Cl)(Cl)Cl` (stereo not drawn), with inactive: -0.23%. For the compound `O=P(Nc1nccs1)(c1ccccc1)c1ccccc1`, the inhibition is inactive: -1.16%.

For `c1nnnn1CCn1cnnn1`, the inhibition was inactive: -0.92%.

Regarding `O=P(Nc1ccccn1)(c1ccc(Br)cc1)c1ccc(Br)cc1`, the inhibition is inactive: -4.62%. Then `C[C@H]1OP(=O)(Oc2ccccc2)[C@H](O)[C@H](O)[C@H]1N=[N+]=[N-]` (stereo partly drawn), with inactive: -2.31%. Then `O=P(Nc1nc2ccccc2s1)(c1ccccc1)c1ccccc1`, with inactive: 2.03%. Regarding `O=[As](O)(c1ccccc1)c1ccc(O)cc1`, the inhibition was inactive: -4.56%. In the case of `O=[N+]([O-])c1ncn(CCn2cnc([N+](=O)[O-])n2)n1`, the inhibition was inactive: 5.45%.

Regarding `CC(=O)NC(SC(=S)N(C)C)C(Cl)(Cl)Cl` (stereo not drawn), the inhibition is inactive: -0.64%. On to `O=C(OC1CN2CCC1CC2)c1cccc(Cl)c1` (stereo not drawn), for which the inhibition was inactive: -8.51%. Consider `C(Cc1nn[nH]n1)Cc1nn[nH]n1`, for which the inhibition was inactive: 7.65%. Then `Nc1ccc([As](=O)(O)c2ccc([N+](=O)[O-])cc2)cc1`, with inactive: 2.71%.
